Experimental data: patent publication US20080221013A1, “Neurobiological compositions” (priority 2006, published 2008)

What was measured:
alpha4beta2nAChRs [1] = target: T1, alpha4beta2nAChRs (Homo sapiens, UniProt P17787+P43681); conditions: co-expressed with lynx1; cited from earlier work
alpha4beta2nAChRs [2] = target: T1, alpha4beta2nAChRs; assay: co-immunoprecipitation in transiently transfected HEK293 cells; type: binding; parameters: expressed in transfected cells; host or cells: HEK293; conditions: IP with nAChR antibodies, Western blot
Text: Figures C-F depict co-immunoprecipitation studies of transiently transfected HEK293 cells with alpha4beta2 nAChRs co-transfected with lynx1 (C), lynx2 (D), lynx3 (E) and ly6H (F), a related family member.

alph4beta2 nAChRs = target: T2, alph4beta2 nAChRs (Homo sapiens, UniProt P17787+P43681); assay: voltage-clamp recordings of xenopus oocytes heterologously expressing nAChR and lynx cRNA; type: cell-based; conditions: coexpressed with a4b2 nAChRs in oocytes, 1 mM ACh
T2 construct: expressed in transfected cells; host or cells: Xenopus oocytes injected with cRNA
Text: FIG. 2. lynx polypeptides are nAChR modulatory polypeptides, as assessed by voltage-clamp recordings in a xenopus ooctye expression system. lynx1, lynx2 and lynx3 enhance desensitization of ACh-evoked currents mediated through a4b2 nAChRs in oocytes. A. Representative recordings of voltage clamped oocytes expressing a4b2 nAChRs alone, or in combination with lynx1, lynx2, lynx3 and ly6H. The inward currents were evoked by 20 sec periods of superfusion (horizontal calibration bar) with external saline containing 1 mM ACh. […] B and C. The differences in desensitization are shown with bar graphs. As described in (2), two exponentials equations were fitted to the desensitization currents during ACh application. Using these equations, fast (B) and slow (C) time constants were calculated and the average values of these constants for ACh responses are shown in B and C. […] Both constants are unaffected in oocytes coexpressing Ly6H.
The inward currents were evoked by 20 sec periods of superfusion (horizontal calibration bar) with external saline containing 1 mM ACh. […] B and C). The differences in desensitization are shown with bar graphs. As described in (2), two exponentials equations were fitted to the desensitization currents during ACh application. Using these equations, fast (B) and slow (C) time constants were calculated and the average values of these constants for ACh responses shown. […] Both constants are unaffected in oocytes coexpressing Ly6H.

B1: lynx1: ly-6/uPAR family polypeptide, allosteric modulator of nicotinic acetylcholine receptors; mouse lynx1 (SEQ ID NO:3) (protein, listed as Mus musculus)
chain: MTHLLTVFLVALMGLPVAQALECHVCAYNGDNCFKPMRCPAMATYCMTTRTYFTPYRMKVRKSCVPSCFETVYDGYSKHASATSCCQYYLCNGAGFATPVTLALVPALLATFWSLL
**Q.** Which results are given for B1?
**A.** desensitization (alpha4beta2nAChRs [1]): more rapid desensitization; recovery from desensitization (alpha4beta2nAChRs [1]): recover more slowly from desensitization; sensitivity of receptors to ACh (alpha4beta2nAChRs [1]): less sensitive to ACh; association with nAChRs in co-immunoprecipitation (alpha4beta2nAChRs [2]): stable associations; desensitization of ACh-evoked currents during agonist application (alph4beta2 nAChRs; 20 sec): significantly faster desensitization; fast time constant of desensitization (alph4beta2 nAChRs; two-exponential fit): significantly faster; slow time constant of desensitization (plateau phase) (alph4beta2 nAChRs; two-exponential fit): remained the same
